Antibody variant affinities, Ab-14 light chain, assay 1

Source: Engelhart et al. 2022 (doi:10.1038/s41597-022-01779-4), MIT Lincoln Laboratory and A-Alpha Bio; data file from the FLAb repository.

Antigen: PDVDLGDISGINAS, a 14-residue peptide of the SARS-CoV-2 spike HR2 region.

Parent scFv Ab-14: VH joined to VL by a (GGGGS)3 linker. Changes lie in the light chain CDRs alone.
VH: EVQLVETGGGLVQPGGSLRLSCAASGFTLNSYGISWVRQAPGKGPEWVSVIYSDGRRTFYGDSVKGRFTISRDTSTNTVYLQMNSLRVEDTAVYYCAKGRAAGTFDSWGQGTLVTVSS
VL: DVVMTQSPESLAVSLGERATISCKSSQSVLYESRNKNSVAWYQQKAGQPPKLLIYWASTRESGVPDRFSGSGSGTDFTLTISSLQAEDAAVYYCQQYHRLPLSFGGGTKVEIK

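The parent was found by panning a naive human phage display library on the peptide. In library AAYL50, one, two or three CDR residues were substituted; doubles and triples were drawn at random. Affinity was read by AlphaSeq, a pooled yeast mating assay with surface-displayed partners. The frequency of each diploid, read from paired DNA barcodes, reflects how well the two displayed proteins bind. The ratio of observed to expected reads was calibrated, replicate by replicate, on BCL2-family standards whose Kd was known from biolayer interferometry. There are three technical replicates.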

Positions count from residue 1 of the parent VL; K24D puts D in place of K. Numbers give log10(Kd / nM), so 0 is 1 nM and 3 is 1 µM. Smaller is tighter. "nd" means that the variant was in the library but no mating with the target was seen in that replicate; the authors take this as a sign of poor binding, and no number exists. Background: pairings of library AAYL50 with three empty control strains gave a value in 18% of cases (median 4.19, 5th percentile 2.99). Values in that range, when seen in few replicates, are hard to tell from nonspecific mating. Also given: how often the same scFv was detected with the empty control strains, with their mean in brackets. Parent in this assay: reference entry 0.65, copy in this library 1.68.

{"changes": "K24D/E32S/H98Y", "log10 Kd (nM) by replicate": "1.61 1.51 1.58", "control signals": "5/9 (4.25)"}
{"changes": "A40Q/W56H/P101G", "log10 Kd (nM) by replicate": "nd 4.48 4.52", "control signals": "5/9 (4.90)"}
{"changes": "E61M/H98G/P101E", "log10 Kd (nM) by replicate": "0.50 0.81 0.85", "control signals": "3/9 (3.96)"}
{"changes": "S26W/E61A", "log10 Kd (nM) by replicate": "0.69 0.67 0.45", "control signals": "0/9"}
{"changes": "S33K/A40T/S103A", "log10 Kd (nM) by replicate": "nd 4.08 4.97", "control signals": "3/9 (4.55)"}
{"changes": "E32W/K36A/S58Y", "log10 Kd (nM) by replicate": "3.47 1.75 1.94", "control signals": "0/9"}
{"changes": "V29M/E61F/L100V", "log10 Kd (nM) by replicate": "4.70 3.70 4.01", "control signals": "3/9 (5.19)"}
{"changes": "L30A/E32D/S62Y", "log10 Kd (nM) by replicate": "0.53 0.77 0.69", "control signals": "3/9 (4.26)"}
{"changes": "S38C/R99V", "log10 Kd (nM) by replicate": "nd nd nd", "control signals": "1/9 (3.15)"}
{"changes": "Q27H/P101T/S103T", "log10 Kd (nM) by replicate": "nd nd nd", "control signals": "2/9 (4.43)"}
{"changes": "S62Q/S103P", "log10 Kd (nM) by replicate": "0.12 0.44 0.55", "control signals": "1/9 (2.79)"}
{"changes": "S33W/R60L/E61K", "log10 Kd (nM) by replicate": "4.13 4.08 nd", "control signals": "1/9 (2.54)"}
{"changes": "R34N/V39Q/W56G", "log10 Kd (nM) by replicate": "1.88 1.68 2.47", "control signals": "1/9 (3.98)"}
{"changes": "S26L/R60Y/L102S", "log10 Kd (nM) by replicate": "nd nd nd", "control signals": "2/9 (4.01)"}
{"changes": "S26C/Q27L/R60I", "log10 Kd (nM) by replicate": "nd nd nd", "control signals": "0/9"}
{"changes": "L30R/Q95M", "log10 Kd (nM) by replicate": "2.43 2.15 1.94", "control signals": "3/9 (3.67)"}
{"changes": "K24W/V29L/W56H", "log10 Kd (nM) by replicate": "0.19 0.49 0.38", "control signals": "1/9 (4.73)"}
{"changes": "Y31G/K36C/Y97V", "log10 Kd (nM) by replicate": "nd 3.26 4.05", "control signals": "4/9 (3.87)"}
{"changes": "T59N/E61D/L100F", "log10 Kd (nM) by replicate": "1.33 1.59 1.57", "control signals": "4/9 (4.38)"}
{"changes": "A40H/W56T", "log10 Kd (nM) by replicate": "4.43 nd nd", "control signals": "1/9 (3.44)"}
{"changes": "V39S/T59S/R99L", "log10 Kd (nM) by replicate": "nd nd nd", "control signals": "1/9 (4.56)"}
{"changes": "S28H/E32Y/S33A", "log10 Kd (nM) by replicate": "2.69 3.30 3.18", "control signals": "5/9 (4.80)"}
{"changes": "S33W/W56S/S58G", "log10 Kd (nM) by replicate": "0.20 0.51 0.29", "control signals": "2/9 (5.27)"}
{"changes": "S33E/W56F/H98S", "log10 Kd (nM) by replicate": "0.05 0.32 0.10", "control signals": "1/9 (4.35)"}
{"changes": "H98M", "log10 Kd (nM) by replicate": "0.49 0.78 0.69", "control signals": "2/9 (4.96)"}
{"changes": "K24A/S28F/E32N", "log10 Kd (nM) by replicate": "nd nd nd", "control signals": "3/9 (3.22)"}

2 of these entries, quoted again:

{"changes": "S26L/R60Y/L102S", "log10 Kd (nM) by replicate": "nd nd nd", "control signals": "2/9 (4.01)"}
{"changes": "L30R/Q95M", "log10 Kd (nM) by replicate": "2.43 2.15 1.94", "control signals": "3/9 (3.67)"}